Experimental data: patent US20060094649A1, “Hla-a1,-a2,-a3,-a24,-b7, and-b44 tumor associated antigen peptides and compositions” (priority 2002, published 2006)

What follows are compounds tested on HLA-B44 supertype molecules (assay: HLA-B44 supertype cross-binding). Settings: number of the six B44 supertype alleles bound.
Design: species or system human

Degeneracy | SMILES
6 | CC[C@H](C)[C@H](NC(=O)[C@H](CC(C)C)NC(=O)[C@@H](NC(=O)[C@H](Cc1ccc(O)cc1)NC(=O)CNC(=O)[C@H](CCC(N)=O)NC(=O)[C@@H](NC(=O)[C@H](CCC(=O)O)NC(=O)[C@@H](N)CCC(N)=O)C(C)C)C(C)C)C(=O)O [compound 432]
6 | CC[C@H](C)[C@H](NC(=O)[C@H](CO)NC(=O)[C@@H](NC(=O)[C@H](CC(C)C)NC(=O)[C@@H]1CCCN1C(=O)[C@H](CO)NC(=O)[C@H](C)NC(=O)[C@H](CCCNC(=N)N)NC(=O)[C@H](CCC(N)=O)NC(=O)[C@H](CCC(=O)O)NC(=O)[C@H](C)N)[C@@H](C)O)C(=O)O [compound 435]
6 | CC(C)C[C@H](NC(=O)CNC(=O)[C@H](CC(C)C)NC(=O)[C@H](Cc1ccc(O)cc1)NC(=O)[C@H](CCC(=O)O)NC(=O)[C@@H]1CCCN1C(=O)[C@H](CC(N)=O)NC(=O)[C@H](CCC(=O)O)NC(=O)[C@H](C)N)C(=O)O [compound 439]
6 | CC[C@H](C)[C@H](NC(=O)[C@H](CCC(=O)O)NC(=O)[C@@H](NC(=O)[C@H](CC(C)C)NC(=O)[C@H](CO)NC(=O)[C@H](CCCNC(=N)N)NC(=O)[C@H](CC(C)C)NC(=O)[C@H](CCC(N)=O)NC(=O)[C@H](CC(C)C)NC(=O)[C@H](CCC(=O)O)NC(=O)[C@@H](N)CCCNC(=N)N)[C@@H](C)O)C(=O)O [compound 440]
6 | CC[C@H](C)[C@H](NC(=O)[C@H](CCCCN)NC(=O)[C@H](CCCCN)NC(=O)[C@H](CS)NC(=O)CNC(=O)[C@H](C)NC(=O)[C@H](Cc1ccccc1)NC(=O)[C@H](CCC(=O)O)NC(=O)[C@@H](N)CCC(N)=O)C(=O)N[C@@H](Cc1ccccc1)C(=O)NCC(=O)O [compound 441]
6 | CC(C)C[C@H](NC(=O)[C@@H]1CCCN1C(=O)[C@H](C)NC(=O)[C@@H](NC(=O)[C@H](Cc1ccc(O)cc1)NC(=O)CNC(=O)[C@H](CC(=O)O)NC(=O)[C@@H](NC(=O)[C@H](CCC(=O)O)NC(=O)[C@@H](N)CO)[C@@H](C)O)C(C)C)C(=O)O [compound 446]
5 | CC(C)C[C@H](NC(=O)[C@H](CCC(=O)O)NC(=O)[C@@H](N)CC(C)C)C(=O)N[C@H](C(=O)N[C@@H](Cc1ccc(O)cc1)C(=O)N[C@@H](CC(C)C)C(=O)N1CCC[C@H]1C(=O)N[C@H](C(=O)N[C@@H](CC(N)=O)C(=O)N[C@@H](C)C(=O)O)[C@@H](C)O)[C@@H](C)O [compound 447]
5 | CC(C)C[C@H](NC(=O)[C@H](C)NC(=O)[C@H](Cc1ccc(O)cc1)NC(=O)[C@H](CC(N)=O)NC(=O)[C@H](CC(=O)O)NC(=O)[C@H](CCC(=O)O)NC(=O)[C@@H](N)Cc1ccccc1)C(=O)N[C@@H](C)C(=O)N[C@H](C(=O)O)C(C)C [compound 449]
5 | CC(C)C[C@H](NC(=O)[C@H](CCC(N)=O)NC(=O)[C@H](CC(C)C)NC(=O)[C@H](CCC(=O)O)NC(=O)[C@@H](N)CCCNC(=N)N)C(=O)N[C@@H](CCCNC(=N)N)C(=O)N[C@@H](CO)C(=O)N[C@@H](CC(C)C)C(=O)N[C@H](C(=O)O)[C@@H](C)O [compound 450]
5 | CSCC[C@H](N)C(=O)N[C@@H](CCC(=O)O)C(=O)N[C@@H](Cc1c[nH]cn1)C(=O)N[C@@H](CC(C)C)C(=O)N[C@@H](CCCNC(=N)N)C(=O)N[C@@H](CCC(=O)O)C(=O)N[C@H](C(=O)N[C@@H](CCCNC(=N)N)C(=O)N[C@@H](C)C(=O)O)C(C)C [compound 451]
5 | CC[C@H](C)[C@H](NC(=O)[C@H](CCCCN)NC(=O)[C@H](CCCCN)NC(=O)[C@H](CS)NC(=O)CNC(=O)[C@H](C)NC(=O)[C@H](Cc1ccccc1)NC(=O)[C@H](CCC(=O)O)NC(=O)[C@@H](N)CCC(N)=O)C(=O)N[C@@H](Cc1ccccc1)C(=O)O [compound 454]
5 | CC[C@H](C)[C@H](NC(=O)[C@H](Cc1ccc(O)cc1)NC(=O)[C@H](CC(C)C)NC(=O)[C@H](Cc1ccc(O)cc1)NC(=O)CNC(=O)[C@@H](NC(=O)[C@@H](NC(=O)[C@H](CCC(=O)O)NC(=O)[C@@H](N)CCC(=O)O)[C@@H](C)CC)[C@@H](C)O)C(=O)N[C@@H](CO)C(=O)N[C@@H](C)C(=O)O [compound 455]
5 | CC[C@H](C)[C@H](NC(=O)[C@H](CC(C)C)NC(=O)[C@H](C)NC(=O)[C@H](CC(C)C)NC(=O)CNC(=O)[C@H](CO)NC(=O)CNC(=O)[C@H](CC(C)C)NC(=O)[C@H](CCC(=O)O)NC(=O)[C@@H](N)CCCNC(=N)N)C(=O)O [compound 457]
5 | CC(C)C[C@H](NC(=O)[C@H](CS)NC(=O)[C@H](Cc1c[nH]cn1)NC(=O)[C@H](CCCNC(=N)N)NC(=O)[C@H](C)NC(=O)[C@H](CC(N)=O)NC(=O)[C@@H](NC(=O)[C@H](Cc1ccc(O)cc1)NC(=O)[C@H](CCC(=O)O)NC(=O)[C@@H](N)CCCNC(=N)N)C(C)C)C(=O)O [compound 459]
5 | CC[C@H](C)[C@H](NC(=O)[C@H](C)NC(=O)[C@@H](NC(=O)[C@@H]1CCCN1C(=O)[C@@H](NC(=O)[C@H](CCCCN)NC(=O)[C@@H](NC(=O)[C@H](CC(N)=O)NC(=O)[C@H](CCC(=O)O)NC(=O)CN)C(C)C)[C@@H](C)CC)C(C)C)C(=O)O [compound 464]
5 | CSCC[C@H](NC(=O)[C@H](CCCNC(=N)N)NC(=O)[C@H](CO)NC(=O)[C@H](Cc1ccccc1)NC(=O)[C@H](CCC(=O)O)NC(=O)[C@H](CO)NC(=O)[C@@H](NC(=O)[C@H](CC(C)C)NC(=O)[C@H](CCC(=O)O)NC(=O)[C@@H](N)CCCNC(=N)N)C(C)C)C(=O)O [compound 465]

The next lines start with the compound.

SMILES | Degeneracy
CC(C)C[C@H](NC(=O)CNC(=O)[C@H](CCC(=O)O)NC(=O)CN)C(=O)N[C@@H](C)C(=O)N[C@@H](CS)C(=O)N[C@@H](Cc1c[nH]cn1)C(=O)N[C@@H](CCC(N)=O)C(=O)N[C@@H](CC(C)C)C(=O)N[C@@H](CS)C(=O)N[C@@H](C)C(=O)O [compound 433] | 6
CC[C@H](C)[C@H](NC(=O)[C@@H]1CCCN1C(=O)[C@@H]1CCCN1C(=O)[C@H](CCC(N)=O)NC(=O)[C@@H]1CCCN1C(=O)[C@H](CC(C)C)NC(=O)[C@H](CCCNC(=N)N)NC(=O)[C@H](CCC(=O)O)NC(=O)CN)C(=O)O [compound 437] | 6
CC(C)C[C@H](NC(=O)[C@@H]1CCCN1C(=O)[C@H](CO)NC(=O)[C@H](C)NC(=O)[C@@H]1CCCN1C(=O)CNC(=O)[C@H](CC(C)C)NC(=O)[C@H](CC(=O)O)NC(=O)[C@H](CCC(=O)O)NC(=O)[C@@H](N)CC(N)=O)C(=O)O [compound 444] | 6
CC(C)C[C@H](NC(=O)[C@@H]1CCCN1C(=O)[C@H](CO)NC(=O)[C@H](CCCNC(=N)N)NC(=O)[C@@H]1CCCN1C(=O)[C@H](C)NC(=O)[C@H](CCC(=O)O)NC(=O)[C@H](CCC(=O)O)NC(=O)[C@H](CCC(=O)O)NC(=O)[C@@H](N)CO)C(=O)O [compound 445] | 6
CSCC[C@H](N)C(=O)N[C@@H](CCC(=O)O)C(=O)N[C@@H](Cc1c[nH]cn1)C(=O)N[C@@H](CC(C)C)C(=O)N[C@@H](CCCNC(=N)N)C(=O)N[C@@H](CCC(=O)O)C(=O)N[C@H](C(=O)N[C@@H](CCCNC(=N)N)C(=O)N[C@@H](C)C(=O)N[C@H](C(=O)O)C(C)C)C(C)C [compound 452] | 5
CSCC[C@H](N)C(=O)N[C@@H](CCC(=O)O)C(=O)N[C@@H](Cc1c[nH]cn1)C(=O)N[C@@H](CC(C)C)C(=O)N[C@@H](CCCNC(=N)N)C(=O)N[C@@H](CCC(=O)O)C(=O)N[C@H](C(=O)N[C@@H](CCCNC(=N)N)C(=O)N[C@@H](C)C(=O)N[C@H](C(=O)N[C@H](C(=O)N[C@@H](CO)C(=O)N[C@@H](C)C(=O)O)[C@@H](C)O)C(C)C)C(C)C [compound 453] | 5
CC(C)C[C@H](NC(=O)[C@H](C)NC(=O)[C@H](CC(C)C)NC(=O)CNC(=O)[C@H](CO)NC(=O)CNC(=O)[C@H](CC(C)C)NC(=O)[C@H](CCC(=O)O)NC(=O)[C@@H](N)CCCNC(=N)N)C(=O)O [compound 456] | 5
CC(C)C[C@H](NC(=O)[C@H](CCC(N)=O)NC(=O)[C@H](Cc1c[nH]cn1)NC(=O)[C@H](CS)NC(=O)[C@H](C)NC(=O)[C@H](CC(C)C)NC(=O)CNC(=O)[C@H](CCC(=O)O)NC(=O)CN)C(=O)O [compound 458] | 5
CC[C@H](C)[C@H](NC(=O)[C@@H]1CCCN1C(=O)[C@H](CS)NC(=O)[C@@H]1CCCN1C(=O)[C@H](CCC(N)=O)NC(=O)[C@H](CS)NC(=O)[C@H](C)NC(=O)CNC(=O)[C@H](CCC(=O)O)NC(=O)[C@@H](N)CCC(=O)O)C(=O)O [compound 460] | 5
CC(C)C[C@H](NC(=O)[C@@H]1CCCN1C(=O)[C@H](CO)NC(=O)[C@H](C)NC(=O)[C@H](CCCNC(=N)N)NC(=O)[C@H](CCC(N)=O)NC(=O)[C@H](CCC(=O)O)NC(=O)[C@H](C)N)C(=O)N[C@H](C(=O)O)[C@@H](C)O [compound 461] | 5
CC(C)C[C@H](NC(=O)[C@@H]1CCCN1C(=O)[C@H](CCC(=O)O)NC(=O)[C@@H](NC(=O)[C@H](CC(C)C)NC(=O)[C@H](CCC(=O)O)NC(=O)[C@@H](NC(=O)[C@H](CCC(=O)O)NC(=O)[C@@H](N)CCC(N)=O)[C@@H](C)O)C(C)C)C(=O)O [compound 462] | 5
CC(C)C[C@H](NC(=O)[C@H](CCC(=O)O)NC(=O)[C@@H](NC(=O)[C@H](CCC(=O)O)NC(=O)[C@@H](N)CCC(N)=O)[C@@H](C)O)C(=O)N[C@H](C(=O)N[C@@H](CCC(=O)O)C(=O)N1CCC[C@H]1C(=O)N[C@@H](CC(C)C)C(=O)N[C@H](C(=O)O)[C@@H](C)O)C(C)C [compound 463] | 5
CSCC[C@H](NC(=O)[C@H](CCCNC(=N)N)NC(=O)[C@H](CO)NC(=O)[C@H](Cc1ccccc1)NC(=O)[C@H](CCC(=O)O)NC(=O)[C@H](CO)NC(=O)[C@@H](NC(=O)[C@H](CC(C)C)NC(=O)[C@H](CCC(=O)O)NC(=O)[C@@H](N)CCCNC(=N)N)C(C)C)C(=O)N[C@@H](C)C(=O)O [compound 466] | 5
CC(C)C[C@H](NC(=O)[C@@H]1CCCN1C(=O)[C@@H](NC(=O)[C@@H](NC(=O)[C@@H]1CCCN1C(=O)[C@H](CC(=O)O)NC(=O)[C@H](CCC(=O)O)NC(=O)[C@@H](N)CO)[C@@H](C)O)C(C)C)C(=O)O [compound 468] | 5
